Data on 107 compounds can be found in PubChem BioAssay AID588354 (The Scripps Research Institute Molecular Screening Center, 2011).

By UniProt entry, the sequences of proteins in these tests, tags left out.
UniProt Q15788, whole entry: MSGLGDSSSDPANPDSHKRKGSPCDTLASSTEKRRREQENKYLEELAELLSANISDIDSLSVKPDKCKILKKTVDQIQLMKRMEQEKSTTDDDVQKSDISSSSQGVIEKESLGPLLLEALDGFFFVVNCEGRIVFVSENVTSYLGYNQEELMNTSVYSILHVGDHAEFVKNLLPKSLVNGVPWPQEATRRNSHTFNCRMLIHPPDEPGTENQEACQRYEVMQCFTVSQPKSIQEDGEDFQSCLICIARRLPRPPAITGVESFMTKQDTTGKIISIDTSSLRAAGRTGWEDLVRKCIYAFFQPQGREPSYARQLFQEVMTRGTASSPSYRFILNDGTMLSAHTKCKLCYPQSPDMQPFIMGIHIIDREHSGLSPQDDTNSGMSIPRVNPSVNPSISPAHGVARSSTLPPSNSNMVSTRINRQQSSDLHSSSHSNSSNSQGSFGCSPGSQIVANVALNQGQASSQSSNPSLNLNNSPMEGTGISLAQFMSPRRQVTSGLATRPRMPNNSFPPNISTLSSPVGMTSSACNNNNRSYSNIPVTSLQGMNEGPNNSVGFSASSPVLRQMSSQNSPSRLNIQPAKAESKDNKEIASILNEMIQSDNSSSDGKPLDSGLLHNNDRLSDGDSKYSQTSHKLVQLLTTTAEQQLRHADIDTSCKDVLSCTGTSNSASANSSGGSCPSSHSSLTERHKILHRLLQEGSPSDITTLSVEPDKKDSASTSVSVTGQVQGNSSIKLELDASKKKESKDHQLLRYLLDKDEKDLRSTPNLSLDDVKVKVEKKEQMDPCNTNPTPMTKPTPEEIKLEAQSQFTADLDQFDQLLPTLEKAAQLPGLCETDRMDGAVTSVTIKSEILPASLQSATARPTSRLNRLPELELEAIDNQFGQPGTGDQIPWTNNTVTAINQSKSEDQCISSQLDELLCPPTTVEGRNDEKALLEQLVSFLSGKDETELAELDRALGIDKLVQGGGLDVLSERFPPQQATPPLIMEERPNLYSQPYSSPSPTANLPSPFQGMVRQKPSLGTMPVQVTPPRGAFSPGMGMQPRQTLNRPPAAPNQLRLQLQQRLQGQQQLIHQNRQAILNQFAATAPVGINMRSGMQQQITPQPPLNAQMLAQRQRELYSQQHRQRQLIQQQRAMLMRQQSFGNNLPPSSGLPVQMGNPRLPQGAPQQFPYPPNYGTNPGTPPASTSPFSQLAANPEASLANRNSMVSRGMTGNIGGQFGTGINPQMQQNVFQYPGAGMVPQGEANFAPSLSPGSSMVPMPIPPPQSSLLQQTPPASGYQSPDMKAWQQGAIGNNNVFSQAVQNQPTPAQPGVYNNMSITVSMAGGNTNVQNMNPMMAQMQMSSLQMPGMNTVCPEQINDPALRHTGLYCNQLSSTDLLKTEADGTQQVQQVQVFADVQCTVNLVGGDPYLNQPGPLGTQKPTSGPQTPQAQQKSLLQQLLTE

Only a part is listed here, and it is no random draw. Activity calls are given as the source filed them.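 How the source made its calls: active means inhibition above the campaign mean plus 3 SD, with each screening campaign given its own cutoff (cut at about 60% in these data); inactive means the rest.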

As a reminder, the inhibition is the change of the read-out against control, counted positive when it falls.

This experiment deals with Nuclear receptor coactivator 1 (Homo sapiens) (UniProt Q15788). Nature of the experiment: NCOA1 GAL4-fusion reporter inhibition – cell-based, luminescence, primary screen (AID 588354).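 Further: 0% = DMSO treated cells and 100% = gossypol at 36 µM.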 To be noted: HEK293 GAL4-SRC1 luciferase reporter, at 3.6 µM, active compounds read high. On the technique in general: A reporter such as luciferase makes a cellular process visible.
With `O=c1[nH]c2ccccc2n1C1CCN(C(c2cccc3ccccc23)c2nnnn2C2CCCC2)CC1` (configuration not stated), the inhibition was inactive: 15.7%. Next, `COc1cc(C(=O)NCC2(N(C)C)CCCCC2)ccc1OC(F)F`: inactive: 3.04%; `CCOC(=O)N1CCC(Nc2cccc(C)c2)CC1`: inactive: 1.97%. Next, `O=c1[nH]c2ccccc2n1C1CCN(C(c2ccccc2)c2nnnn2C2CCCCC2)CC1` (configuration not stated): inactive: 27.4%; `CCOC(=O)N1CCC(Nc2ccc(F)cc2)CC1`: inactive: -12.2%; `COc1ccc(NC2CCN(CCc3ccccc3)CC2)c(OC)c1`: inactive: 1.36%. For `O=C(NCC1(N2CCCCC2)CCCCC1)c1ccc(F)cc1`, the inhibition was inactive: -0.7%.

For `CCCCOc1ccc(C(=O)NCC2(N3CCOCC3)CCCCC2)cc1`, the inhibition is inactive: 0.17%. Regarding `O=P1(N(CCCl)CCCl)SCCCS1`, the inhibition is inactive: -9.12%.

Take `CCCCn1nnnc1C(c1cc2ccccc2o1)N1CCC(n2c(=O)[nH]c3ccccc32)CC1` (configuration not stated): the inhibition was inactive: 8.2%. Next, `CCOc1ccc(C)cc1CN(CCCl)CCCl`: inactive: 9.79%.

On to `O=C1CCN(Cc2ccccc2)CC1`, for which the inhibition was inactive: -4.66%.

Consider `CC(C)(C)n1nnnc1C(c1ccccc1)N1CCC(n2c(=O)[nH]c3ccccc32)CC1` (configuration not stated), for which the inhibition is inactive: -1.75%. Next, `CCCCn1nnnc1C(c1ccc(OC)cc1)N1CCC(n2c(=O)[nH]c3ccccc32)CC1` (configuration not stated): inactive: 13.4%.

For the compound `CCOC(=O)N1CCC(Nc2ccc(OC)cc2)CC1`, the inhibition is inactive: -8.7%.

In the case of `COc1ccc(Cl)cc1C(=O)NCC1(N2CCOCC2)CCCCC1`, the inhibition is inactive: 5.84%. On to `O=c1[nH]c2ccccc2n1C1CCN(C(c2cc3ccccc3o2)c2nnnn2C2CCCCC2)CC1` (configuration not stated), for which the inhibition was inactive: 1.09%. On to `O=C(OC1CN2CCC1CC2)C1c2ccccc2Oc2ccccc21` (configuration not stated), for which the inhibition is inactive: -18.1%.

Turning to `N#CC1(Nc2ccccc2)CCN(Cc2ccccc2)CC1`, the inhibition is inactive: 5.43%. `O=C(NCC1(N2CCCCC2)CCCCC1)c1ccc(Cl)s1`: the inhibition is inactive: -5.39%.

`O=C(NCC1(N2CCOCC2)CCCCC1)c1cc2ccccc2o1`: the inhibition was inactive: -17.3%.

As to `Cc1cc(C)cc(N(C(=O)c2ccccc2)C2CCN(C(=O)OC(C)(C)C)CC2)c1`, the inhibition is inactive: 7.26%. Next, `O=c1[nH]c2ccccc2n1C1CCN(C(c2ccccc2OC(F)(F)F)c2nnnn2C2CCCCC2)CC1` (configuration not stated): inactive: 7.02%; `O=C(NCC1(N2CCCCC2)CCCCC1)c1ccc(Cl)nc1`: inactive: -1.41%. Next, `Cc1cccc(NC2(C#N)CCN(Cc3ccccc3)CC2)c1`: inactive: 5.22%; `CSc1ccccc1C(=O)NCC1(N2CCCCC2)CCCCC1`: inactive: -24.2%.

For `CCCCn1nnnc1C(c1cccs1)N1CCC(n2c(=O)[nH]c3ccccc32)CC1` (configuration not stated), the inhibition is inactive: 20%. With `CCCCn1nnnc1C(CC)N1CCC(n2c(=O)[nH]c3ccccc32)CC1` (configuration not stated) the figure was inactive: 13.8%; with `O=C(NCC1(N2CCCCC2)CCCCC1)c1cccs1`, inactive: -31.2%. Take `O=C(NCC1(N2CCCCC2)CCCCC1)c1ccc(=O)[nH]c1`: the inhibition is inactive: -6.76%. Next, `CCC(c1nnnn1C1CCCC1)N1CCC(n2c(=O)[nH]c3ccccc32)CC1` (configuration not stated): inactive: 7.07%. With `COc1ccc(C(=O)NCC2(N3CCCCC3)CCCCC2)c(OC)c1OC` the figure was inactive: 4.46%; with `CC(C)(C)OC(=O)N1CCC(N(C(=O)c2ccccc2)c2ccc(F)cc2)CC1`, inactive: 21.9%. With `COc1ccc(C(=O)NCC2(N3CCCCC3)CCCCC2)cc1` the figure was inactive: -0.08%; with `CCCOc1ccc(C(=O)NCC2(N(C)C)CCCCC2)cc1OC`, inactive: -1.14%. Turning to `Cc1ccc(C(=O)NCC2(N(C)C)CCCCC2)o1`, the inhibition was inactive: -3.44%. Next, `COc1ccc(C(c2nnnn2C2CCCC2)N2CCC(n3c(=O)[nH]c4ccccc43)CC2)cc1` (configuration not stated): inactive: 14.9%; `O=C(NCC1(N2CCCCC2)CCCCC1)c1cncc(Br)c1`: inactive: -11.3%. As for `CN1CCC(Nc2cccc(F)c2)CC1`, the inhibition is inactive: 7.47%. For `CCCCn1nnnc1C(c1ccnc2ccccc12)N1CCC(n2c(=O)[nH]c3ccccc32)CC1` (configuration not stated), the inhibition is inactive: 11.6%. Next, `O=C(NCC1(N2CCOCC2)CCCCC1)c1cc(F)c(F)cc1Cl`: inactive: 6.35%; `CCC(c1nnnn1C(C)(C)C)N1CCC(n2c(=O)[nH]c3ccccc32)CC1` (configuration not stated): inactive: 6.6%; `COc1cc(OC)c(C(=O)NCC2(N(C)C)CCCCC2)cc1OC`: inactive: -35.3%.

`CN(C)c1cccc(C(=O)NCC2(N3CCCCC3)CCCCC2)c1`: the inhibition is inactive: -18.1%.

On to `COc1ccc(CN(CCCl)CCCl)cc1Cl`, for which the inhibition is inactive: -12.9%. With `CC(C)c1ccc(NC2CCN(C(=O)OC(C)(C)C)CC2)cc1` the figure was inactive: -104%; with `CCCCn1nnnc1C(c1ccccc1OC(F)(F)F)N1CCC(n2c(=O)[nH]c3ccccc32)CC1` (configuration not stated), inactive: 23.6%; with `CCCCn1nnnc1C(c1cccc2ccccc12)N1CCC(n2c(=O)[nH]c3ccccc32)CC1` (configuration not stated), inactive: 11.7%.

`COc1ccc(NC2CCN(C(=O)OC(C)(C)C)CC2)cc1`: the inhibition was inactive: 0.82%. With `CC(C)c1ccc(C(=O)NCC2(N3CCOCC3)CCCCC2)cc1` the figure was inactive: -135%. Next, `CN1CCN(CCOC(=O)C(O)(c2ccccc2)c2ccccc2)CC1`: inactive: 9.41%. Next, `O=C(NCC1(N2CCOCC2)CCCCC1)c1cc(=O)[nH]c2ccccc12`: inactive: -0.54%; `COc1cc(C(=O)NCC2(N3CCCCC3)CCCCC2)ccc1OC(F)F`: inactive: 6.97%.

On to `O=C(NCC1(N2CCCCC2)CCCCC1)c1cccc(C(F)(F)F)c1`, for which the inhibition is inactive: -10.5%. Next, `CSc1ccc(C(=O)NCC2(N3CCOCC3)CCCCC2)cc1`: inactive: -10.9%. As to `O=C(NCC1(N2CCCCC2)CCCCC1)c1cccc([N+](=O)[O-])c1`, the inhibition is inactive: 11.1%.

As to `N#CC1(Nc2ccccc2)CCN(CCc2ccccc2)CC1`, the inhibition was inactive: -3.28%.

As to `O=c1[nH]c2ccccc2n1C1CCN(C(c2ccccc2OC(F)(F)F)c2nnnn2C2CCCC2)CC1` (configuration not stated), the inhibition is inactive: 4.64%. In the case of `CCN1CCC(Nc2ccc(Cl)cc2)CC1`, the inhibition is inactive: -25.6%. Next, `O=C(NCC1(N2CCCCC2)CCCCC1)c1ccc(OC(F)F)cc1`: inactive: -35.5%; `CC(C)(C)n1nnnc1C(c1ccccc1OC(F)(F)F)N1CCC(n2c(=O)[nH]c3ccccc32)CC1` (configuration not stated): inactive: -20.4%; `CC(C)(C)n1nnnc1C(c1cccc2ccccc12)N1CCC(n2c(=O)[nH]c3ccccc32)CC1` (configuration not stated): inactive: 20.3%. With `CCCN1CCC(Nc2cc(OC)cc(OC)c2)CC1` the figure was inactive: -12%; with `O=c1[nH]c2ccccc2n1C1CCN(C(c2ccccc2)c2nnnn2C2CCCC2)CC1` (configuration not stated), inactive: 9.69%. `Cc1cc(N(CCCl)CCCl)ccc1C=O`: the inhibition was inactive: 0.93%. With `c1ccc(CN2CCC(Nc3ccccc3)CC2)cc1` the figure was inactive: -44.1%. With `CN(C)C1(CNC(=O)c2cccc(C#N)c2)CCCCC1` the figure was inactive: 10.9%; with `CC(C)(C)OC(=O)N1CCC(N(C(=O)c2ccccc2)c2ccc(Cl)cc2)CC1`, inactive: 0.53%; with `N#Cc1ccc(C(=O)NCC2(N3CCCCC3)CCCCC2)cc1`, inactive: -26.9%. With `CCCCn1nnnc1C(c1cccc(OC)c1OC)N1CCC(n2c(=O)[nH]c3ccccc32)CC1` (configuration not stated) the figure was inactive: 11.1%; with `O=c1[nH]c2ccccc2n1C1CCN(C(c2cccs2)c2nnnn2C2CCCC2)CC1` (configuration not stated), inactive: 17%. Take `O=C(OC1CN2CCC1CC2)C1c2ccccc2C=Cc2ccccc21` (configuration not stated): the inhibition is inactive: -2.72%. With `N/C(=N\O)c1c(N)no[n+]1[O-]` the figure was inactive: -1.51%. With `COc1cccc(C(c2nnnn2C(C)(C)C)N2CCC(n3c(=O)[nH]c4ccccc43)CC2)c1OC` (configuration not stated) the figure was inactive: -9.17%; with `CCOC(=O)N1CCC(Nc2ccc(C)cc2)CC1`, inactive: -5.22%; with `O=c1[nH]c2ccccc2n1C1CCN(C(c2ccnc3ccccc23)c2nnnn2C2CCCC2)CC1` (configuration not stated), inactive: 11.4%. For the compound `COc1ccc(C(=O)NCC2(N3CCOCC3)CCCCC2)cc1OC`, the inhibition is inactive: 9.82%. Next, `O=c1[nH]c2ccccc2n1C1CCN(C(c2cccs2)c2nnnn2C2CCCCC2)CC1` (configuration not stated): inactive: 4.45%. With `O=C(NCC1(N2CCOCC2)CCCCC1)c1cc(Br)ccc1Cl` the figure was inactive: 2.95%.

For `COc1cc(C(=O)NCC2(N3CCOCC3)CCCCC2)cc(OC)c1C`, the inhibition is inactive: -5.82%. For `CCCCn1nnnc1C(c1ccccc1)N1CCC(n2c(=O)[nH]c3ccccc32)CC1` (configuration not stated), the inhibition is inactive: 16.4%. Next, `CN1CCC(Nc2ccc(Cl)cc2)CC1`: inactive: -15.8%; `CCC(CO)(C(=O)OC1CN2CCC1CC2)c1ccccc1` (configuration not stated): inactive: 6.96%. With `COc1cccc(C(=O)N(c2cc(C)cc(C)c2)C2CCN(C(=O)OC(C)(C)C)CC2)c1` the figure was inactive: -3.93%.

On to `COc1cccc(C(c2nnnn2C2CCCC2)N2CCC(n3c(=O)[nH]c4ccccc43)CC2)c1OC` (configuration not stated), for which the inhibition was inactive: -38.2%. With `COc1cc(OC)cc(C(=O)NCC2(N3CCOCC3)CCCCC2)c1` the figure was inactive: -32.3%.

As for `CCCOc1ccc(C(=O)NCC2(N(C)C)CCCCC2)cc1`, the inhibition is inactive: 13.2%. Next, `O=c1[nH]c2ccccc2n1C1CCN(C(c2cc3ccccc3o2)c2nnnn2C2CCCC2)CC1` (configuration not stated): inactive: 1.29%; `O=C(O)C1(Nc2ccccc2)CCN(Cc2ccccc2)CC1`: inactive: 6.05%.

As for `CC(C)(C)OC(=O)N1CCC(Nc2ccccc2)CC1`, the inhibition is inactive: -3.47%.

Consider `CN1CCC(Nc2ccc(F)c(Cl)c2)CC1`, for which the inhibition is inactive: 3.08%.

Take `CCOc1ncccc1C(=O)NCC1(N2CCOCC2)CCCCC1`: the inhibition was inactive: -2.78%.

Turning to `Cn1c(=O)[nH]cc(N(CCCl)CCCl)c1=O`, the inhibition was inactive: -10.2%.

As for `CN(C)c1ccc(C(=O)NCC2(N3CCCCC3)CCCCC2)cc1`, the inhibition is inactive: -49.5%. With `O=C(NCC1(N2CCCCC2)CCCCC1)c1ccco1` the figure was inactive: -2.98%. Next, `CC(C)(C)n1nnnc1C(c1ccnc2ccccc12)N1CCC(n2c(=O)[nH]c3ccccc32)CC1` (configuration not stated): inactive: -2.17%; `COc1ccc(C(c2nnnn2C2CCCCC2)N2CCC(n3c(=O)[nH]c4ccccc43)CC2)cc1` (configuration not stated): inactive: -3.26%; `CCN1CCC(Nc2cccc(F)c2)CC1`: inactive: -8.34%.

For `Cc1ccccc1NC1(C#N)CCN(Cc2ccccc2)CC1`, the inhibition was inactive: -12.3%.

Turning to `Cc1ccc(NC2(C#N)CCN(Cc3ccccc3)CC2)cc1`, the inhibition was inactive: 5.62%. For the compound `Fc1ccccc1NC1CCN(Cc2ccccc2)CC1`, the inhibition was inactive: -34.6%.

Take `Cc1ccc(C(=O)NCC2(N3CCCCC3)CCCCC2)o1`: the inhibition is inactive: -6.29%. Consider `O=c1[nH]c2ccccc2n1C1CCN(C(c2ccnc3ccccc23)c2nnnn2C2CCCCC2)CC1` (configuration not stated), for which the inhibition was inactive: 10.1%. Regarding `COc1cc(OC)cc(C(=O)NCC2(N3CCCCC3)CCCCC2)c1`, the inhibition is inactive: 3.3%. With `CCC(c1nnnn1C1CCCCC1)N1CCC(n2c(=O)[nH]c3ccccc32)CC1` (configuration not stated) the figure was inactive: 1.87%.

On to `CC(=O)N(c1ccccc1)C1CCNCC1`, for which the inhibition is inactive: 8.66%. Next, `COc1cccc(C(c2nnnn2C2CCCCC2)N2CCC(n3c(=O)[nH]c4ccccc43)CC2)c1OC` (configuration not stated): inactive: 24.9%.
